Earlier results as cited in paper PMC10616113, “Novel 3-phenylquinazolin-2,4(1H,3H)-diones as dual VEGFR-2/c-Met-TK inhibitors: design, synthesis, and biological evaluation” (Scientific Reports, 2023).
pIC50: −log10 of the molar value.

Amino acid sequences for entries named in this document (tags omitted). Residues count along the entry.
UniProt P35968, 20-1356: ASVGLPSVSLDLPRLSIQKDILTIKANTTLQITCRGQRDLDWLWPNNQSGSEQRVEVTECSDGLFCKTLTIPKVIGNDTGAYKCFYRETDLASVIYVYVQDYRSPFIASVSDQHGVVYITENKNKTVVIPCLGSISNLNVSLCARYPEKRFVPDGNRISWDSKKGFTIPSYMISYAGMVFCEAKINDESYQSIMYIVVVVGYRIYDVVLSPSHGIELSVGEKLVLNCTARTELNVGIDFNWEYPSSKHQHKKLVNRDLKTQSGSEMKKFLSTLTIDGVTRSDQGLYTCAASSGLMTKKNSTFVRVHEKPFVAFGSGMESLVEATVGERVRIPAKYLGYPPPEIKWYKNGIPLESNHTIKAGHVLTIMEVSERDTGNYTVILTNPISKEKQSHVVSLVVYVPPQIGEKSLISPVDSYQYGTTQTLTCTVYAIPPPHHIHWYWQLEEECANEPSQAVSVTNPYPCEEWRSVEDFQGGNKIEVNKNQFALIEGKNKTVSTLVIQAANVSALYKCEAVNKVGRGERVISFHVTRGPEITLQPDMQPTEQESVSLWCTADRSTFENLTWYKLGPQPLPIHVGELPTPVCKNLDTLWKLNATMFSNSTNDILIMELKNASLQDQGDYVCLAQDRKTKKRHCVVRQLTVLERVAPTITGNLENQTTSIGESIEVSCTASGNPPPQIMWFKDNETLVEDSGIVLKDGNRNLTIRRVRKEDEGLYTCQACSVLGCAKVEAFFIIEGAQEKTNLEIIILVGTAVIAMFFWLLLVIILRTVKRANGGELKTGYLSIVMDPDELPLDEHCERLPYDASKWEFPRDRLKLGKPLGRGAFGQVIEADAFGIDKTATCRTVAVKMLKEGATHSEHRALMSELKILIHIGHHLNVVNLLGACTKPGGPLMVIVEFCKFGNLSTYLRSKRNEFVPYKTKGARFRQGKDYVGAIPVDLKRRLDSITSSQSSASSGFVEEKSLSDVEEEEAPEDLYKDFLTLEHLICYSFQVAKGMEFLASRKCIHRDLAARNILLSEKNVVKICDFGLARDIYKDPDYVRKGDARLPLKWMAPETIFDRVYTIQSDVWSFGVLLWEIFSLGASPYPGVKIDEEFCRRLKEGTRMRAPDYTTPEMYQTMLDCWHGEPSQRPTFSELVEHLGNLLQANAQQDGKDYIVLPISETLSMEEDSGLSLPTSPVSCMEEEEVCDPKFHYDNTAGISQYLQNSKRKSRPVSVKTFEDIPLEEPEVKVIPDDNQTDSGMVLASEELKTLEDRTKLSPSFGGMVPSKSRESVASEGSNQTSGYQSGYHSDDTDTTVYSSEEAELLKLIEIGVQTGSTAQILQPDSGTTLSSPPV

Molecular target: VEGFR-2 (Homo sapiens, UniProt P35968)
Conditions: read-out: VEGFR-2 IC50; cited from earlier work

MGCD-265 [XVII]
pIC50: 8.00
